{"sequences": {"note": "Amino acid sequences for entries named in this document (tags omitted). A change or cut given only in a name is not applied to a line headed by its entry.", "UniProt P41145": "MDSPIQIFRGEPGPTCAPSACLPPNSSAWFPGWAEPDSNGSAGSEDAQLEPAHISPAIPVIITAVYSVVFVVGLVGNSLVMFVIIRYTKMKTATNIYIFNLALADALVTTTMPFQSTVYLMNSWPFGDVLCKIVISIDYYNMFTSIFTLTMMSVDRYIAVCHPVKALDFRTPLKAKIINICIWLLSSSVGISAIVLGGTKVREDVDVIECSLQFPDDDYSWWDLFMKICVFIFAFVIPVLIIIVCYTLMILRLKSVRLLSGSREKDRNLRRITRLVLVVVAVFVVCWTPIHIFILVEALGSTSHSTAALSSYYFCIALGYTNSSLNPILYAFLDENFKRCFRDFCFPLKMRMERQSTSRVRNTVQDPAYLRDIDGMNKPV"}, "source": "ChEMBL document CHEMBL3774335", "about": "“Tactical Approaches to Interconverting GPCR Agonists and Antagonists” (J Med Chem, 2016)", "molecular_target": "Kappa-type opioid receptor (Homo sapiens, UniProt P41145)", "test": "Binding affinity to human kappa opioid receptor", "data": [{"smiles": "C=CCN1CC[C@]23c4c5ccc(O)c4O[C@H]2[C@@H](O)C=C[C@H]3[C@H]1C5", "values": [{"measurement": "Ki", "result": 2, "unit": "nM"}]}]}
